Structures are written as SMILES. Only a part is listed here, and it is no random draw. Activity calls are given as the source filed them.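 Rule for the calls: active = inhibition above 40% at the single screening dose; inactive = the rest.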

Protein sequences, listed by entry. Tags and fused reporters are not part of them.
UniProt Q06609, whole entry, looked up: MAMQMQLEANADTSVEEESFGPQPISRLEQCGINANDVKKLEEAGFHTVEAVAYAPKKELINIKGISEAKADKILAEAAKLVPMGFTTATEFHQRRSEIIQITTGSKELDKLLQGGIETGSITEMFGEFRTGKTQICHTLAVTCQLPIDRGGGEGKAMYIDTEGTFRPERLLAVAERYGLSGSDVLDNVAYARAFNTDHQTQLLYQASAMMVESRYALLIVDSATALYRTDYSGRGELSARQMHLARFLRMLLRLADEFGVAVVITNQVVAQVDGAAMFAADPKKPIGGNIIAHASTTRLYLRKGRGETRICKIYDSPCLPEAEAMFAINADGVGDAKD

The assay deals with DNA repair protein RAD51 homolog 1 (Homo sapiens) (UniProt Q06609). The assay can be described thus: blockers of RAD51-mediated homologous recombination – biochemical, fluorescence, primary screen (AID 1385).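 Note: 0% = DMSO control wells and 100% = blanks with heterologous ssDNA.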 As to conditions: hRad51 DNA strand exchange, fluorescence dequenching; at 10 µM; active compounds read high.
As for `Cc1cc(SC(NC=O)C(Cl)(Cl)Cl)ncn1` (stereo unspecified), the inhibition (usually the relative decrease from the control value, in per cent) is inactive: -4.57%.
Then `O=P(Nc1ccccn1)(c1cccc2ccccc12)c1cccc2ccccc12`, with inactive: 8.9%; and `O=[N+]([O-])c1ccc(Nc2ccc(Oc3ccc([N+](=O)[O-])cc3[N+](=O)[O-])cc2)c([N+](=O)[O-])c1`, with inactive: -7.79%.
For `CCOC(=O)Nc1cccc([As](=O)(O)O)c1` the value was inactive: -4.8%; for `Cc1cc(SC(NC(=O)c2ccccc2)C(Cl)(Cl)Cl)nc(C(C)C)n1` (stereo unspecified), inactive: -3.04%; for `CCOC(=O)Nc1ccc([As](=O)(O)O)c(O)c1`, inactive: 2.05%.
For `CCC(C)N(CC(C)C)C(=S)SC(NC(C)=O)C(Cl)(Cl)Cl` (stereo unspecified), the inhibition was inactive: 2.56%.
For the compound `COP1(=S)c2c(C)nn(CCC#N)c2N=C(c2ccc(F)cc2)N1C` (stereo unspecified), the inhibition is inactive: 6.32%.
Then `COc1ccc(N/C(=N/P(=O)(N2CCOCC2)N2CCOCC2)N2CCOCC2)cc1`, with inactive: 9.03%.
For `COc1ccc2nc(NP(=O)(c3ccccc3)c3ccccc3)sc2c1` the value was inactive: 2.3%; for `COc1cc(I)ccc1[As](=O)(O)O`, inactive: -2.37%.
For `O=C(OC1CN2CCC1CC2)C12CC3CC(CC(C3)C1)C2` (stereo unspecified) the value was inactive: 3.03%; for `Cc1cc(=O)[nH]c(N[N+](=O)[O-])n1`, inactive: 1.29%.
In the case of `CC(C)NC(=O)NP(=O)(Oc1ccccc1)Oc1ccccc1`, the inhibition is inactive: -3.09%.
Then `CCN(CC)C(=S)SC(NC=O)C(Cl)(Cl)Cl` (stereo unspecified), with inactive: 16.1%.
For `O=[N+]([O-])c1cc([N+](=O)[O-])c(-c2ccn[nH]2)s1`, the inhibition was inactive: 19.3%.
For `ClCCSc1nnc(-c2cccnc2)o1` the value was inactive: 2.32%.
Then `Cc1ccc(OP(=O)(Nc2ccc([N+](=O)[O-])cn2)Oc2ccc(C)cc2)cc1`, with inactive: -2.14%; and `Cc1ccc2nc3c(c(C)c2c1)CC(C(Cl)Cl)S3` (stereo unspecified), with inactive: 6.22%.
For `O=[As](O)(c1ccc(O)cc1)c1ccccc1O` the value was inactive: -13.2%; for `C[As](=O)(O)c1cccc(C(=O)O)c1`, inactive: -19.5%; for `CN(C(=O)Cc1ccccc1)[C@@H]1CC[C@]2(CCCO2)C[C@H]1N1CCCC1`, inactive: 6.57%.
On to `CCOP1(=S)c2c(C)nn(CCC#N)c2N=C(c2ccc(F)cc2)N1C` (stereo unspecified), for which the inhibition is inactive: 0.19%.
For `O=[N+]([O-])c1ccc2c(c1)nnn2O` the value was inactive: -2.4%; for `CN(C(=O)Cc1ccc(Cl)c(Cl)c1)[C@H]1CC[C@@]2(CCCO2)C[C@@H]1N1CCCC1`, inactive: -2.3%.
`NC(=O)Nc1ccc([As](=O)(O)O)cc1`: the inhibition was inactive: -5.12%.
Then `O=C(O)COc1ccc([As](=O)(O)O)cc1[N+](=O)[O-]`, with inactive: 12.5%; and `Nc1ccccc1[As](=O)(O)c1ccccc1`, with inactive: 13.3%.
For `CCOP1(=S)c2c(C)nn(CCC#N)c2N=C(c2ccccc2F)N1C` (stereo unspecified) the value was inactive: -6.03%.
Consider `O=P(Nc1nccs1)(Oc1ccccc1)Oc1ccccc1`, for which the inhibition is inactive: 22%.
Then `O=P(Nc1nccs1)(c1ccccc1)c1nc2ccccc2s1` (stereo unspecified), with inactive: -3.1%; and `CS(=O)(=O)c1cc([N+](=O)[O-])c2no[n+]([O-])c2c1`, with inactive: -2.88%; and `COc1cc(C2NCCC3(OCCO3)C2(C)C)cc(OC)c1OC` (stereo unspecified), with inactive: -5.76%.
Then `Nc1cccc2c([As](=O)(O)O)cccc12`, with inactive: -26.5%; and `Cc1ccc(NCCc2c([N+](=O)[O-])cc([N+](=O)[O-])cc2[N+](=O)[O-])cc1`, with inactive: 4.45%; and `CCCOP(=S)(Nc1nc(N)cc(=O)[nH]1)OCCC`, with inactive: 18.9%.
For `Cc1cccc(OCC(=O)OC2CN3CCC2CC3)c1` (stereo unspecified) the value was inactive: -0.83%; for `O=[As](O)(c1cccc(O)c1)c1cccc(O)c1`, inactive: 11.8%.
`O=C(OC1CN2CCC1CC2)c1ccc(Cl)cc1` (stereo unspecified): the inhibition was inactive: 2.58%.
For `O=[As](O)(O)c1cccnc1` the value was inactive: 7.19%; for `COc1cc(C(=O)NCC2(N3CCOCC3)CCCCC2)cc(Cl)c1OC(C)C`, inactive: -2.47%.
`CN(C(=O)Cc1ccc(Cl)c(Cl)c1)[C@@H]1CCCC[C@H]1N1CCCC1`: the inhibition is inactive: -6.95%.
Consider `O=[As](O)(c1ccccc1Br)c1ccccc1Br`, for which the inhibition was inactive: 12.3%.
Then `CC1(CBr)Cn2c(nc3ccccc3c2=O)S1` (stereo unspecified), with inactive: 0.88%.
For `Clc1n[nH]nc1-c1nn[nH][15n]1` the value was inactive: -5.13%; for `CC(C)(C)C(=O)NC(Sc1ncccn1)C(Cl)(Cl)Cl` (stereo unspecified), inactive: 15.5%.
As for `O=P1(Nc2ccccn2)COc2ccccc2OC1`, the inhibition was inactive: -11.4%.
Then `CCOP(=O)(Nc1ccc(C)cn1)OCC`, with inactive: -2.48%; and `CN(CCCl)Cc1cc(Cl)c(NC2=NCCN2)c(Cl)c1`, with inactive: -1.93%.
For `Nc1cccc([As](=O)(O)c2ccccc2)c1` the value was inactive: 6.39%; for `Cc1ccc(OCC(=O)OC2CN3CCC2CC3)cc1` (stereo unspecified), inactive: -2.84%.
Regarding `O=P1(Nc2ccc(Br)cn2)COc2ccccc2OC1`, the inhibition was inactive: 7.04%.
Turning to `O=P1(Nc2ncccn2)COc2ccccc2OC1`, the inhibition was inactive: 2.85%.
For `O=C(/C=C/c1ccccc1)OC1CN2CCC1CC2` (stereo unspecified) the value was inactive: -6.31%.
With `Cc1nn(-c2ccccc2)c2c1P(=O)(N1CCOCC1)N(C)C(c1ccccc1)=N2` (stereo unspecified), the inhibition was inactive: -8.6%.
For `CC1CCC(C(C)C)C(OP(=O)(Nc2ccccn2)c2ccccc2)C1` (stereo unspecified) the value was inactive: -5.55%; for `O=C(OC1CN2CCC1CC2)c1cccc(Cl)c1` (stereo unspecified), inactive: 1.61%.
For `Nc1ccc([As](=O)(O)c2ccc([N+](=O)[O-])cc2)cc1` the value was inactive: -5.22%; for `O=[As](O)(c1ccccc1)c1ccc(O)cc1`, inactive: 8.2%.
Then `O=[N+]([O-])c1ncn(CCn2cnc([N+](=O)[O-])n2)n1`, with inactive: 1.66%; and `O=P(Nc1nc2ccccc2s1)(c1ccccc1)c1ccccc1`, with inactive: 21.5%.
`C[C@H]1OP(=O)(Oc2ccccc2)[C@H](O)[C@H](O)[C@H]1N=[N+]=[N-]` (stereo partly specified): the inhibition was inactive: 10.1%.
Then `O=P(Nc1ccccn1)(c1ccc(Br)cc1)c1ccc(Br)cc1`, with inactive: 10.4%.
For the compound `c1nnnn1CCn1cnnn1`, the inhibition was inactive: -20%.
`O=P(Nc1nccs1)(c1ccccc1)c1ccccc1`: the inhibition was inactive: -0.42%.
For `CC(C)C(=O)NC(Sc1ccccc1)C(Cl)(Cl)Cl` (stereo unspecified) the value was inactive: 12.5%; for `CC(=O)Nc1ccc([As](=O)(O)O)c(O)c1`, inactive: 21%.
For `CC(=O)Nc1ccc(Oc2c([N+](=O)[O-])cc([N+](=O)[O-])cc2[N+](=O)[O-])cc1`, the inhibition is inactive: -3.81%.
For `C[C@H]1OP(=O)(Oc2ccccc2)C[C@@H]2O[C@@H]21` (stereo partly specified) the value was inactive: 6.7%; for `C[C@@H]1C=CCP(=O)(Oc2ccccc2)O1` (stereo partly specified), inactive: -1.05%; for `CC(C)(C)C(=O)NC(Sc1ccccc1)C(Cl)(Cl)Cl` (stereo unspecified), inactive: 20.5%.
Then `O=P1(Nc2nc3ccc(Cl)cc3s2)COc2ccccc2O1` (stereo unspecified), with inactive: -4.62%; and `CCOc1ccc(C2=NCC(CBr)S2)cc1` (stereo unspecified), with inactive: -36.7%.
For the compound `Cc1ccccc1OP(=O)(Nc1ccccn1)Oc1ccccc1C`, the inhibition is inactive: 3.39%.
Then `O=c1c2cc([N+](=O)[O-])ccc2[nH]c2c([N+](=O)[O-])cc([N+](=O)[O-])cc12`, with inactive: -24.9%; and `CCC(=O)N1C2C3N(C(=O)CC)C1C1N(C(=O)CC)C(C(N1C(=O)CC)N3C(=O)CC)N2C(=O)CC`, with inactive: -9.58%.
Then `COC(=O)c1cc2c(s1)N=C(c1ccccc1)N(C)P2(=O)N1CCOCC1` (stereo unspecified), with inactive: 17%; and `Cc1ccc(OP(=O)(Nc2ccccn2)Oc2ccc(C)cc2)cc1`, with inactive: -0.59%.
Then `c1ccc(-c2nn[nH]n2)c(-c2nn[nH]n2)c1`, with inactive: 1.52%; and `CCOC(=O)NC(Sc1ccccc1)C(Cl)(Cl)Cl` (stereo unspecified), with inactive: -12.2%.
For `Cc1ccc(NP(=O)(Oc2cccc(C)c2)Oc2cccc(C)c2)nc1`, the inhibition was inactive: -16.9%.
Regarding `O=C(NC1CCS(=O)(=O)C1)NP(=S)(Oc1ccccc1)Oc1ccccc1` (stereo unspecified), the inhibition is inactive: -2.78%.
For `CCNC(=S)/N=C(\N)N[N+](=O)[O-]` the value was inactive: 15.2%; for `Nc1cccc2ccc([As](=O)(O)O)cc12`, inactive: -4.57%; for `Cc1cc(SC(NC(=O)c2ccc(F)cc2)C(Cl)(Cl)Cl)ncn1` (stereo unspecified), inactive: -5.02%.
Then `CCOP(=O)(Nc1ccccc1)OCC`, with inactive: -5.95%.
For `CN(C(=O)Cc1ccc(Cl)c(Cl)c1)[C@H]1CCCC[C@@H]1N1CCCC1` the value was inactive: -2.39%; for `O=P(Nc1nc2ccc(Cl)cc2s1)(c1ccccc1)c1ccccc1`, inactive: 14.3%; for `CC(=O)Nc1ccc([As](=O)(O)O)cc1`, inactive: 8.7%.
As for `O=C(O)c1ccccc1[As](=O)(O)O`, the inhibition is inactive: -18%.
For `O=C(NC(Sc1ccncn1)C(Cl)(Cl)Cl)c1ccccc1` (stereo unspecified), the inhibition is inactive: 7.82%.
As to `Cc1c2non([O-])c-2c(C)[n+](=O)[n+]1[O-]`, the inhibition is inactive: -2.88%.
Take `Nc1cc(N)c2nonc2c1[N+](=O)[O-]`: the inhibition is inactive: 6.26%.
With `CC(C)CC(=O)NC(Sc1ccc(Cl)cc1)C(Cl)(Cl)Cl` (stereo unspecified), the inhibition was inactive: 3.31%.
Then `CN1CCCC(OC(=O)C(c2ccccc2)c2ccccc2)C1` (stereo unspecified), with inactive: -8.57%; and `COc1ccccc1OP(=O)(Nc1ccc(C)cn1)Oc1ccccc1OC`, with inactive: -0.1%.
For `Cc1ccc(OP(=O)(Nc2nccs2)Oc2ccc(C)cc2)cc1`, the inhibition is inactive: -1.78%.
With `Cc1ccc(N/C(=N/P(=O)(N2CCOCC2)N2CCOCC2)N2CCOCC2)cc1`, the inhibition was inactive: -5.38%.
For `NC(=O)c1cc([N+](=O)[O-])cc([N+](=O)[O-])c1N` the value was inactive: -0.46%.
Then `CC1CCN(C(=O)Oc2c(Cl)cc(Cl)c3cccnc23)CC1`, with inactive: 2.45%.
With `CC(C)=N/N=C(\N)N[N+](=O)[O-]`, the inhibition is inactive: -1.85%.
With `CN(C)C(=O)OCCc1n(C)cc[n+]1C`, the inhibition was inactive: -1.07%.
Then `CCN(/C(=N/P(=O)(N1CCOCC1)N1CCOCC1)N1CCOCC1)c1ccc(OC)cc1`, with inactive: -217%.
Then `Nc1ccc([As](=O)(O)c2ccc(N)cc2)cc1`, with inactive: 13.4%.
For `C[N+]1=C2C=CC=CC=C2SC12C([N+](=O)[O-])=CC([N+](=O)[O-])=C[C-]2[N+](=O)[O-]` (stereo unspecified) the value was inactive: 17%; for `Cc1ccc(NP(=O)(Oc2ccccc2)Oc2ccccc2)nc1`, inactive: -1.24%; for `O=[N+]([O-])c1cc([N+](=O)[O-])c(CCNc2ccccc2)c([N+](=O)[O-])c1`, inactive: 14.9%.
`CCc1nc2c(n1)c1c(non1O)c1c2no[n+]1[O-]`: the inhibition was inactive: 2.98%.
Then `CC(=O)N1C2C3N(C(C)=O)C1C1N(C(C)=O)C(C(N1C(C)=O)N3C(C)=O)N2C(C)=O`, with inactive: -0.28%; and `O=[N+]([O-])c1cccc2n[nH]nc12`, with inactive: -6.92%; and `COc1ccc(C2=NCC(CBr)S2)cc1` (stereo unspecified), with inactive: 5.17%.
For `O=C(O)CNc1ccc([As](=O)(O)O)cc1` the value was inactive: 10.2%; for `O=[N+]([O-])c1cccc(NC2=NCC(CBr)S2)c1` (stereo unspecified), inactive: -6.87%.
Regarding `O=[N+]([O-])c1ncn(CCn2ncnc2[N+](=O)[O-])n1`, the inhibition is inactive: 1.95%.
Then `CC(C)(C)C(=O)NC(Sc1ccncn1)C(Cl)(Cl)Cl` (stereo unspecified), with inactive: 16.6%; and `O=C(Nc1cc([As](=O)(O)O)ccc1O)c1ccccc1`, with inactive: 11.2%.

For the origin of these results see PubChem BioAssay AID1385 (PCMD, 2008).
